Source: PubChem BioAssay AID878 (University of Pittsburgh Molecular Library Screening Center, 2007)
The list shows a part of the results, in another mix than the full data. Active and inactive are the calls of the source.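 Rule for the calls: active = activation of at least 50% relative to the plate's high and low controls in the primary single-dose screen; inactive = activation below 50%.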

Test: compounds producing H2O2 with reducing agent – biochemical, NIH compound library profiling, artefact control for MLSCN library redox annotation, primary screen (AID 878);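 note: compound incubated with DTT at 0.8 mM final as the reducing agent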
Details: DTT-dependent redox cycling H2O2, phenol red/HRP absorbance; at 10 µM; active compounds read high; 100% = 100 µM peroxide control, 0% = buffer

For `O=[N+]([O-])c1cc([N+](=O)[O-])c(-n2nnc3ccccc32)c([N+](=O)[O-])c1`, which activation is on record?
Its activation is inactive: -0.92%.

With `Cc1nc2ccc3ccccc3c2s1.O=[N+]([O-])c1cc([N+](=O)[O-])c(O)c([N+](=O)[O-])c1` as the compound, how does the activation read?
The activation was inactive: 2.04%.

With `CCCOc1ccc(NP(C)(=O)Oc2ccc(Cl)cc2)cc1` (configuration not stated) as the compound, how does the activation read?
The activation was inactive: -0.21%.

Which activation does the source give for `CP(=O)(Nc1ccc(SC(F)(F)F)cc1)Oc1ccccc1` (configuration not stated) here?
Its activation is inactive: -0.45%.

Which activation does the source give for `CN1CCCCC1COC(=O)C1(O)c2ccccc2CCc2ccccc21` (configuration not stated) here?
Its activation is inactive: -0.08%.

With `COc1ccccc1OP(C)(=O)Nc1c(C)cccc1C` (configuration not stated) as the compound, how does the activation read?
Its activation is inactive: 2.4%.

Which activation does the source give for `CC1=NCCc2c1[nH]c1ccccc21.O=[N+]([O-])c1cc([N+](=O)[O-])c(O)c([N+](=O)[O-])c1` here?
Its activation is inactive: 0.17%.

With `CCOC(=O)c1ccc(NP(C)(=O)Oc2cc(C)cc(C)c2)cc1` (configuration not stated) as the compound, how does the activation read?
The activation was inactive: -0.01%.

For `Cc1cc(C)cc(OP(C)(=O)Nc2ccc(C)cc2C)c1` (configuration not stated), which activation is on record?
Its activation is inactive: 0.09%.

With `Cc1ccc(C)c(NP(C)(=O)Oc2ccccc2)c1` (configuration not stated) as the compound, how does the activation read?
The activation was inactive: 2.23%.

For `Cc1cc(C)cc(OP(C)(=O)Nc2ccccn2)c1` (configuration not stated), which activation is on record?
Its activation is inactive: -0.54%.

For `CP(=O)(Nc1cccc(Br)c1)Oc1ccccc1` (configuration not stated), which activation is on record?
Its activation is inactive: -2.11%.

With `CCN(CC)CCCOC(=O)C(O)(c1ccccc1)c1ccccc1` as the compound, how does the activation read?
Its activation is inactive: -1.56%.

Which activation does the source give for `O=[N+]([O-])c1ccc2c(c1)C=Nc1ccccc1O2` here?
Its activation is inactive: -1.42%.

With `Cc1cccc(C)c1OP(C)(N)=O` (configuration not stated) as the compound, how does the activation read?
The activation was inactive: -1.99%.

Which activation does the source give for `CC(C)(C)c1ccc(OP(C)(=O)Nc2ccc(SC(F)(F)F)cc2)cc1` (configuration not stated) here?
The activation was inactive: -0.24%.

Which activation does the source give for `Cc1cc(C)cc(OP(C)(N)=O)c1` (configuration not stated) here?
The activation was inactive: -2.31%.

For `COc1ccc(OP(C)(=O)Nc2cccc(F)c2)cc1` (configuration not stated), which activation is on record?
The activation was inactive: 0.12%.

Which activation does the source give for `COc1ccccc1OP(C)(=O)Nc1cc(Cl)ccc1C` (configuration not stated) here?
Its activation is inactive: -0.27%.

For `Cc1ccc(NP(C)(=O)Oc2ccccc2)c(C)c1` (configuration not stated), which activation is on record?
Its activation is inactive: 0.76%.

With `COc1ccccc1OP(C)(=O)Nc1ccc(C)cc1` (configuration not stated) as the compound, how does the activation read?
Its activation is inactive: -2.05%.

With `CCOC(=O)c1ccc(NP(C)(=O)Oc2ccccc2)cc1` (configuration not stated) as the compound, how does the activation read?
Its activation is inactive: -0.67%.

Which activation does the source give for `CP(=O)(Nc1ccccc1Br)Oc1ccccc1` (configuration not stated) here?
The activation was inactive: -0.84%.

For `COc1ccccc1OP(C)(=O)Nc1ccccc1` (configuration not stated), which activation is on record?
Its activation is inactive: -0.41%.

With `CP(=S)(Nn1cnnc1)Oc1ccccc1` (configuration not stated) as the compound, how does the activation read?
The activation was inactive: -0.44%.

For `Cc1cc(C)cc(OP(C)(=O)Nc2ccc(SC(F)(F)F)cc2)c1` (configuration not stated), which activation is on record?
The activation was inactive: -0.06%.

For `CP(=O)(NC(=O)Nc1ccccc1)Oc1ccccc1` (configuration not stated), which activation is on record?
The activation was inactive: -0.07%.

With `CP(=O)(Oc1ccccc1)OC(c1ccccc1)C(F)(F)F` (configuration not stated) as the compound, how does the activation read?
Its activation is inactive: -1.97%.

Which activation does the source give for `Cc1cccc(C)c1OP(C)(=O)Nc1ccc(SC(F)(F)F)cc1` (configuration not stated) here?
Its activation is inactive: 0.21%.

With `CP(=O)(Nc1ccccn1)Oc1ccc(Cl)cc1` (configuration not stated) as the compound, how does the activation read?
Its activation is inactive: -0.08%.

Which activation does the source give for `CCOC(=O)c1ccc(NP(C)(=O)Oc2ccc(OC)cc2)cc1` (configuration not stated) here?
The activation was inactive: 0.17%.

Which activation does the source give for `CCOP(C)(=S)SCC(=O)NC(C)C(=O)O` (configuration not stated) here?
The activation was inactive: -1.52%.

With `COc1ccccc1OP(C)(=O)Nc1c(C)n(C)n(-c2ccccc2)c1=O` (configuration not stated) as the compound, how does the activation read?
The activation was inactive: -0.6%.

With `CP(=O)(Oc1ccccc1)N1CCOC1=O` (configuration not stated) as the compound, how does the activation read?
Its activation is inactive: 1.88%.

With `CCN(CC)CC(O)COC(=O)C(O)(c1ccccc1)C1CCCCC1` (configuration not stated) as the compound, how does the activation read?
The activation was inactive: -0.15%.

With `CN(C)C(=O)c1c([N+](=O)[O-])cc([N+](=O)[O-])cc1[N+](=O)[O-]` as the compound, how does the activation read?
Its activation is inactive: 0.18%.

Which activation does the source give for `COc1ccccc1OP(C)(=O)Nc1ccccc1Br` (configuration not stated) here?
Its activation is inactive: -0.33%.

For `CC(C)(C)c1ccc(OP(C)(=O)O)cc1`, which activation is on record?
Its activation is inactive: 0.64%.

With `CP(=O)(Nc1ccc(Cl)cc1)Oc1ccc(F)cc1` (configuration not stated) as the compound, how does the activation read?
The activation was inactive: 0.51%.

Which activation does the source give for `CCOC(=O)c1ccc(NP(C)(=O)Oc2ccc(Cl)cc2)cc1` (configuration not stated) here?
Its activation is inactive: 0.01%.

For `CP(=O)(OC12CC3CC(CC(C3)C1)C2)OC12CC3CC(CC(C3)C1)C2`, which activation is on record?
The activation was inactive: 0.34%.

With `COc1ccccc1OP(C)(=O)Nc1ccc(C)c(C)c1` (configuration not stated) as the compound, how does the activation read?
The activation was inactive: 0.4%.

Which activation does the source give for `COc1ccc(OP(C)(=O)Nc2ccccc2Br)cc1` (configuration not stated) here?
Its activation is inactive: 0.05%.

Which activation does the source give for `Cc1cc(C)cc(OP(C)(=O)Nc2cccc(C(F)(F)F)c2)c1` (configuration not stated) here?
Its activation is inactive: -0.42%.

Which activation does the source give for `CP(=O)(Nc1ccc(Cl)cc1Cl)Oc1ccccc1` (configuration not stated) here?
The activation was inactive: -1.59%.

For `CP(=O)(OCCOc1ccccc1)OCCOc1ccccc1`, which activation is on record?
Its activation is inactive: -1.93%.

For `Cc1nc2ccc3ccccc3c2o1.O=[N+]([O-])c1cc([N+](=O)[O-])c(O)c([N+](=O)[O-])c1`, which activation is on record?
Its activation is inactive: 3.19%.

For `COc1ccc(OP(C)(=O)Nc2ccccn2)cc1` (configuration not stated), which activation is on record?
Its activation is inactive: 0.37%.

With `CN(C)CCOC(=O)C(O)(c1ccccc1)C1CCCC1` (configuration not stated) as the compound, how does the activation read?
Its activation is inactive: 0.46%.

Which activation does the source give for `COc1ccccc1OP(C)(=O)Nc1ccc(C)cc1C` (configuration not stated) here?
The activation was inactive: -7.33%.

With `CP(=O)(Nc1ccccn1)Oc1ccccc1` (configuration not stated) as the compound, how does the activation read?
Its activation is inactive: 2.29%.

For `CCc1ccc(OP(C)(=O)O)cc1`, which activation is on record?
The activation was inactive: 1.73%.

For `Cc1c(NP(C)(=O)Oc2ccc(C(C)C)cc2)c(=O)n(-c2ccccc2)n1C` (configuration not stated), which activation is on record?
Its activation is inactive: 2.49%.

With `O=[N+]([O-])c1cc([N+](=O)[O-])c(Nc2ccccn2)c([N+](=O)[O-])c1` as the compound, how does the activation read?
Its activation is inactive: 0.000623%.

With `CP(=O)(Nc1ccccc1F)Oc1ccccc1` (configuration not stated) as the compound, how does the activation read?
The activation was inactive: 0.57%.

For `CC(C)c1ccc(OP(C)(=O)Nc2ccc(SC(F)(F)F)cc2)cc1` (configuration not stated), which activation is on record?
The activation was inactive: -0.01%.

Which activation does the source give for `O=C(OCCN1CCN(CCOCc2ccccc2)CC1)C(O)(c1ccccc1)c1ccccc1` here?
The activation was inactive: -0.5%.

For `CCOC(=O)c1ccc(NP(C)(=O)Oc2ccc(F)cc2)cc1` (configuration not stated), which activation is on record?
The activation was inactive: 0.72%.

Which activation does the source give for `COc1ccc(OP(C)(=O)Nc2ccc(SC(F)(F)F)cc2)cc1` (configuration not stated) here?
The activation was inactive: -1.32%.

With `CP(=O)(Nc1ccccc1)Oc1ccc(F)cc1` (configuration not stated) as the compound, how does the activation read?
The activation was inactive: 1.78%.

With `CCN(CC)CCCOC(=O)C(O)(c1ccccc1)C1CCCCC1` (configuration not stated) as the compound, how does the activation read?
The activation was inactive: 0.15%.

Which activation does the source give for `CN(C)CCOC(=O)C(O)(c1ccccc1)C1CCCCC1` (configuration not stated) here?
The activation was inactive: 0.47%.

With `COc1ccc(NP(C)(=O)Oc2ccccc2OC)cc1` (configuration not stated) as the compound, how does the activation read?
The activation was inactive: 0.8%.

With `COc1ccc(OP(C)(=O)Nc2cccc(Br)c2)cc1` (configuration not stated) as the compound, how does the activation read?
Its activation is inactive: -3.91%.

With `O=[N+]([O-])c1cc([N+](=O)[O-])c(NCC2CCS(=O)(=O)C2)c([N+](=O)[O-])c1` (configuration not stated) as the compound, how does the activation read?
The activation was inactive: -3.12%.

For `Cc1ccccc1NP(C)(=O)Nc1ccccc1C`, which activation is on record?
Its activation is inactive: -1.43%.

With `CP(=O)(Nc1ccc2c(c1)OCCO2)Oc1ccccc1` (configuration not stated) as the compound, how does the activation read?
The activation was inactive: 0.9%.
